As usually defined, the IC50 is the concentration needed to halve the response being measured.

Amino acid sequences for entries named in this document (tags omitted). Residues count along the entry.
UniProt Q14416, 19-872 limits assumed: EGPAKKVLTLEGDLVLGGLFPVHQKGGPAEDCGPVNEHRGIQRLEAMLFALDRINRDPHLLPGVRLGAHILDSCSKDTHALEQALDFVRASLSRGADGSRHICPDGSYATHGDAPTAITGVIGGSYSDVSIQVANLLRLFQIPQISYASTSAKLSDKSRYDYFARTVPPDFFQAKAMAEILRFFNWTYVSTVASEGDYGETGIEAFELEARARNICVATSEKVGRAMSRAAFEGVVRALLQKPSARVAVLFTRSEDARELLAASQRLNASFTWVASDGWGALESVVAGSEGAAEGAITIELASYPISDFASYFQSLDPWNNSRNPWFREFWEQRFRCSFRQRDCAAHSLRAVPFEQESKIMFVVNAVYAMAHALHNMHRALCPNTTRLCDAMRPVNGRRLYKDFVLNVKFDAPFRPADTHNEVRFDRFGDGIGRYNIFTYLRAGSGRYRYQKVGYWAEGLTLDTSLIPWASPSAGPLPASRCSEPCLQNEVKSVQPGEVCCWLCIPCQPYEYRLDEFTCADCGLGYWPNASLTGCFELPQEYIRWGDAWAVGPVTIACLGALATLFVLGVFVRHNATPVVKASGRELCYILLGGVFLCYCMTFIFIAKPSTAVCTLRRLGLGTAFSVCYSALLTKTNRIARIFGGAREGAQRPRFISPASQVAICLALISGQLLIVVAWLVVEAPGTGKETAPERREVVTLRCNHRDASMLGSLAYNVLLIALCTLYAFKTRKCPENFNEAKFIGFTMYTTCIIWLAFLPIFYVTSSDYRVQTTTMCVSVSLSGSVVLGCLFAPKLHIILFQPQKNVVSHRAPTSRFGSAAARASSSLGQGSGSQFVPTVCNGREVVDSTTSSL

Consider 3 compounds from patent US9458176B2, “Tetrahydroimidazo(1,5-D)[1,4]oxazepine derivative” (Eisai R&D Management Co., Ltd., priority 2013, dated 2016).

Like-named read-outs stand apart in the source and are kept apart here.

In this assay the target is human mGluR2 (Homo sapiens (Human), UniProt Q14416). Put plainly: [35S]GTPγS binding assay (Affinity to mGluR2). The conditions noted are these: read-out: GTPγS binding assay IC50, cell membrane fraction of HEK293 cells stably expressing human mGluR2, glutamic acid 10 μM. The procedure:
(Preparation of Cell Membrane Fraction of HEK293 Cells Stably Expressing Human Metabotropic Glutamate Receptor 2 (mGluR2))
HEK293 cells stably expressing human mGluR2 and human glutamate transporter SLC1A3 were cultured in a Dulbecco's modified Eagle's medium with 10% fetal bovine serum (50 units/mL of penicillin, 50 μg/mL of streptomycin, 60 μg/mL of geneticin, 400 μg/mL of hygromycin B and 2 mM of glutamine) at 37° C. under 5% CO2. Confluent cell cultures were washed twice with PBS(−), and then scraped off with a cell scraper, and subjected to centrifugal separation at 4° C. and 1500 rpm for 5 minutes for collecting cells. The centrifuged sediment (cell pellet) was homogenized in a 20 mM HEPES buffer containing 10 mM EDTA (pH 7.4) by using sonicator and centrifuged at 4° C. and 1500×g for 30 minutes. The supernatant (soluble fraction) was subjected to the centrifugal separation at 4° C. and 40,000×g for 30 minutes, and thus, insoluble fraction was obtained. After additional centrifugally washing the obtained fraction with 20 mM HEPES buffer containing 10 mM EDTA (pH 7.4), the pellet was centrifugally suspended with a 20 mM HEPES buffer containing 0.1 mM EDTA, and the cell membrane fraction was obtained by the centrifugal separation at 4° C. and 40,000×g for 30 minutes. The thus obtained cell membrane fraction was suspended in a 20 mM HEPES buffer containing 0.1 mM EDTA in a protein concentration of 3 mg/mL, which was stored at −80° C.
([^35S]GTPγS Binding Assay)
The frozen cell membrane fraction prepared as described above was thawed before use, and the resultant was diluted with a buffer for a binding assay (final concentrations: 20 mM HEPES, 100 mM NaCl, 1 mM MgCl2, 3 μM GDP, 300 μg/mL saponin, 0.1% BSA). […] After the incubation, the plate was subjected to the centrifugal separation at 2,500 rpm and room temperature, and then, membrane cell binding radioactivity was measured with a top count. […]
On the technique in general: Binding of GTPγS marks nucleotide exchange on a G protein.

Turning to `COc1cc(-c2nc(-c3cc(C)nc(CF)c3)c3n2CCOCC3)ccc1Cl`, the IC50 is 0.0253 µM. On the same count and under the same terms, to `Cc1cc(-c2nc(-c3ccc(OC(F)(F)F)c(C)c3)n3c2CCOCC3)cc(C)n1` belongs 0.0194 µM. As for `Cc1cc(-c2nc(-c3ccc(OC(F)(F)F)c(F)c3)n3c2CCO[C@H](C)C3)ccn1`, for the setting “inhibition of specific [35S]GTPγS binding”, the IC50 was 0.0181 µM.
